Measurements from patent US10294227B2, “Compounds” (UNIVERSITY COURT OF THE UNIVERSITY OF EDINBURGH, priority 2015, dated 2019).

By UniProt entry, the sequences of proteins in these tests, tags left out.
UniProt P12931, whole entry, looked up: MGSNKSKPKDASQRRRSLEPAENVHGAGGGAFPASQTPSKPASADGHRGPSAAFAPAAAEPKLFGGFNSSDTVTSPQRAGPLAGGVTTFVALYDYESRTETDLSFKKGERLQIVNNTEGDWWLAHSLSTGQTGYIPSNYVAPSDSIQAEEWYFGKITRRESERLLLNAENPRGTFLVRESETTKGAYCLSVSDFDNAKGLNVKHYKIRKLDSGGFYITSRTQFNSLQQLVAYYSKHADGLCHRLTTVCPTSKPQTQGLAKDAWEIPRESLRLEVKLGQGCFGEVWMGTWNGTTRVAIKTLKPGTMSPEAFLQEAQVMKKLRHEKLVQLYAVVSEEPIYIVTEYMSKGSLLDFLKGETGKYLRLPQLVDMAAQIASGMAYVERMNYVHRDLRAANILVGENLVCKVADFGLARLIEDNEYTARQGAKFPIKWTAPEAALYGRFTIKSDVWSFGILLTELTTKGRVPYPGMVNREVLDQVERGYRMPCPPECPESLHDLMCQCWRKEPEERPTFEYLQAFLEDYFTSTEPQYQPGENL

Biological target: SRC (Homo sapiens (Human), UniProt P12931)
Assay: Kinase screening assay (IC50)
Type: biochemical
Conditions: recombinant kinase, SFK member

Question: `COc1cc(-c2nn(CCN3CCC(CN(C)C)CC3)c3ncnc(N)c23)ccc1NC(=O)OC(C)(C)C` [Compound 503, tert-butyl N-[4-[4-amino-1-[2-[4-(dimethylaminomethyl)-1-piperidyl]ethyl]pyrazolo[3,4-d]pyrimidin-3-yl]-2-methoxy-phenyl]carbamate] was tested. Which IC50 did it give?
Answer: < 0.5 nM
